These results are taken from US6828348B2, “L-ascorbic acid-2-o-maleic acid-a-tocopherol diester 1-propanol adduct and process for producing the same” (Senju Pharmaceutical Co., Ltd., priority 2002, dated 2004).

The procedure of the series: The experimental conditions are as follows:
Detector: Ultraviolet absorptiometer (wave length: 220 nm)
Column: A stainless steel tube of 6 mm ID and 15 cm length being packed with octadecylated silica gel of […] in particle size designed for use in liquid chromatograph.
Mobile phase: As prepared by dissolving 0.4 g of crystalline sodium dihydrogenphosphate and 0.3 g of sodium chloride in 50 ml of water, and adding 500 ml of methanol and 450 ml of acetonitrile, followed by addition of phosphoric acid to adjust to pH 4.0.
Flow rate: As regulated so that the retention time may be about 12 min.

For the substance “L-Ascorbic acid-2-O-maleic acid-α-tocopherol diester.1-propanol adduct [Example 1]”, the “Storage stability (in words)” value is given as “superior to the ethanol adduct in storage stability”.
